The text below walks through data of patent publication US9725465B2, “Biaryl acetamide compounds and methods of use thereof” (Ambit Biosciences Corporation, priority 2013, dated 2017).

Chains of the proteins cited; added tags and fusions are not shown. A line that says so, or that is headed by a name, gives the form on record, which may keep a tag or linker. Residues count along the entry.
UniProt P36888, 27-993: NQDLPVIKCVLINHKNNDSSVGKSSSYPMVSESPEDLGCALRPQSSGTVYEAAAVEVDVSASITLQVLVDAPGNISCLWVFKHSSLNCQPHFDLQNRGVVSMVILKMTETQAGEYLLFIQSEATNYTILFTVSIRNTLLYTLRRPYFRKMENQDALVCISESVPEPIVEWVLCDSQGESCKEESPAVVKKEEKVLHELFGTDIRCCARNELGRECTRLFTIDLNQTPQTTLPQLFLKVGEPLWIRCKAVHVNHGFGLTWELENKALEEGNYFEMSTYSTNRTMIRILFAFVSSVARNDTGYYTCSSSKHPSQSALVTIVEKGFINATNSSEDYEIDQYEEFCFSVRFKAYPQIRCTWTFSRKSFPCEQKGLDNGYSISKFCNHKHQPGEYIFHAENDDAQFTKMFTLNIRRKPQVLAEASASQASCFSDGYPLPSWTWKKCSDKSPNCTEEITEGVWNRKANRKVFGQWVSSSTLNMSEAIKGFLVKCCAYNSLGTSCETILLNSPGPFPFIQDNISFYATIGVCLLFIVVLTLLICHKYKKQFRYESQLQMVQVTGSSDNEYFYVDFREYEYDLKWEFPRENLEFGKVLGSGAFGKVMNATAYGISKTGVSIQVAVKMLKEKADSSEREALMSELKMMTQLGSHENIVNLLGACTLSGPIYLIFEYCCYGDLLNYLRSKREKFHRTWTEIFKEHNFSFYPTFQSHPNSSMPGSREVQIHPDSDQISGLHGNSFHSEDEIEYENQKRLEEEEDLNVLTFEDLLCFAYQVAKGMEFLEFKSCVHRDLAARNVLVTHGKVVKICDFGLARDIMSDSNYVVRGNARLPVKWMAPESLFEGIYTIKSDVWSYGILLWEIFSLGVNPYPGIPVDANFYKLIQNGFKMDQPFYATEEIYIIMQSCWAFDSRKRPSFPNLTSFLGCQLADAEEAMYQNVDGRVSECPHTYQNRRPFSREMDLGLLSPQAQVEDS
UniProt P36888, other isoform, or with tags, fused parts or gaps limits assumed, stated change not applied: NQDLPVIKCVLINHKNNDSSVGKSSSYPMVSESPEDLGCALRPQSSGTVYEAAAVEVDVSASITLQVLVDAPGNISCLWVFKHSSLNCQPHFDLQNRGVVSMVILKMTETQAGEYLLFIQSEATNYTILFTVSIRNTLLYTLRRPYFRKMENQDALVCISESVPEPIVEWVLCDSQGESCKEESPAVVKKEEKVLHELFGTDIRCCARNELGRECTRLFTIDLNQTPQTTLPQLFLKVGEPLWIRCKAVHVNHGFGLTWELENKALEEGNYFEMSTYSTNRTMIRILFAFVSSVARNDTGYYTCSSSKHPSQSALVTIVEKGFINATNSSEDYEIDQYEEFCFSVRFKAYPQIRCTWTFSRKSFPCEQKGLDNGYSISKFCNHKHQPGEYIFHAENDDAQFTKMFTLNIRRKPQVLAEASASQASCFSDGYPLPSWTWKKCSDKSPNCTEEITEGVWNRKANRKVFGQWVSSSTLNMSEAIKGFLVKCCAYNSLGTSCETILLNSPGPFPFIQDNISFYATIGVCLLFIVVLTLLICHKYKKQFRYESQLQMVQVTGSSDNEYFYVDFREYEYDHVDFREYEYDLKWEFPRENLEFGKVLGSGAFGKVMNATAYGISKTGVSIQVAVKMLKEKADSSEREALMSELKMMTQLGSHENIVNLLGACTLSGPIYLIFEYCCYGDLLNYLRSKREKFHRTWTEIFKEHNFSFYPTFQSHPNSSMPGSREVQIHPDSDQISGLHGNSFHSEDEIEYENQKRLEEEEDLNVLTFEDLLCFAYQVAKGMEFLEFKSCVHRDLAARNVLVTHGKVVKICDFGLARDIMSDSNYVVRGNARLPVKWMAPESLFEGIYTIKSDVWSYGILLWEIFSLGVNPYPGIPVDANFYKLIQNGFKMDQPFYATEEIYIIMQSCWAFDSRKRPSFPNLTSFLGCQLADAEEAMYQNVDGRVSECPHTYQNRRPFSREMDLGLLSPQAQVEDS

Where only a bound is given, the exact number is not on record here.

The target of one assay is FLT3 kinase (Homo sapiens (Human), UniProt P36888). Description: Competition binding assay (Kd), FLT3.
The target in a further assay is FLT3-ITD (Homo sapiens (Human), UniProt P36888, INS600HVDFREYEYD). The experiment in a line: pFLT3 MSD assay, Ba/F3 FLT3-ITD. In kind it is cell-based. To be noted: read-out: BaF3-FLT3-ITD pFlt3 IC50. Here is the method:
Exemplary assays are described in the Example section.
The effects of the compounds of Formula I provided herein, on the tyrosine kinase activity of the FLT3 mutants were determined by pFLT3 MSD (Meso Scale Discovery) electrochemiluminescence assay. […] Cells were plated at 200,000 cells/well in 96-well round bottom plates in low serum, and 3-fold serial dilutions of test compounds were added for 2 hours at 37° C. Cells were washed with PBS, lysed with 30 uL/well of cell lysis buffer (Cell Signaling Technology), and 25 uL/well were applied to FLT3 MSD capture plates that were pre-coated with anti-FLT3 monoclonal antibody (R&D Systems Catalog #MAB8121). After an overnight incubation at 4° C. shaking at 450 rpm, plates were washed with MSD wash buffer, and captured FLT3 was detected with biotinylated-anti-phosphotyrosine antibody 4G10 (Millipore) and SulfoTAG-streptavidin (MSD) for 1 hour at room temperature, and read on an MSD SECTOR Imager 6000. Percent remaining phospho-FLT3 in compound-treated cells was normalized to DMSO-treated cells, and IC50s were determined using Igor Pro software. All compounds are assayed in duplicate cell and MSD plates.

Broadly, the Kd is the constant that tells how readily two partners part at equilibrium. Higher therefore signals lower affinity. Broadly, the IC50 is the concentration that gives 50% inhibition. Regarding `COc1cc2nc(-c3ccc(CC(=O)Nc4cc(C(C)(C)C(F)(F)F)on4)c(F)c3)cnc2cc1OCCN1CCOCC1` [Example 171, 2-[2-fluoro-4-[7-methoxy-6-(2-morpholino-ethoxy)quinoxalin-2-yl]phenyl]-N-[5-(2,2,2-trifluoro-1,1-dimethyl-ethyl)isoxazol-3-yl]acetamide], the Kd on FLT3 kinase was under 5 nM. The IC50 on FLT3-ITD is under 10 nM.
